Results on 3 compounds are retold here after paper PMC10810714, “Antiretroviral Drug Exposure and Response in Obese and Morbidly Obese People With Human Immunodeficiency Virus (HIV): A Study Combining Modelling and Swiss HIV Cohort Data” (Clinical Infectious Diseases: An Official Publication of …, 2023).

The nature of series [1]: Observed pharmacokinetics of antiretrovirals in nonobese and obese individuals (SHCS therapeutic drug monitoring data and literature studies, noncompartmental analysis). Particulars: observed data. From the text: We took several steps to analyse the impact of obesity on the ARVs exposure and response. First, we implemented our in-house PBPK model with our recently published virtual White obese population to simulate the pharmacokinetics of ARVs in nonobese and obese individuals. Next, we verified the simulations against the TDM data collected during the follow-up visits of the SHCS (multiple drug levels per individual were allowed [more information on the SHCS in the homonymous section in the Supplementary Material]). We then applied the verified model to extrapolate the pharmacokinetics across different obesity classes. Finally, the clinical relevance of obesity-related changes on drug response was evaluated by analyzing HIV viral load and the corresponding TDM values in obese and nonobese individuals in the SHCS. […]
The Swiss HIV Cohort Study (SHCS) is an ongoing, nationwide, multicenter, clinic-based prospective cohort study in Switzerland with continuous enrollment and follow-up (twice a year) of people with HIV (PWH). Socio-demographic, clinical and laboratory data are recorded in detail. […] All available TDM data for each evaluated antiretroviral drug were extracted from the SHCS database representing 6210 and 575 data points for the verification of the simulations in non-obese and obese individuals, respectively.

Series [2] can be described thus: PBPK model virtual trials matched to the observed studies (model verification, nonobese vs obese). Set-up: species or system human. The note with it: obese individuals. From the text:
We took several steps to analyse the impact of obesity on the ARVs exposure and response. First, we implemented our in-house PBPK model with our recently published virtual White obese population to simulate the pharmacokinetics of ARVs in nonobese and obese individuals. Next, we verified the simulations against the TDM data collected during the follow-up visits of the SHCS (multiple drug levels per individual were allowed [more information on the SHCS in the homonymous section in the Supplementary Material]). We then applied the verified model to extrapolate the pharmacokinetics across different obesity classes. Finally, the clinical relevance of obesity-related changes on drug response was evaluated by analyzing HIV viral load and the corresponding TDM values in obese and nonobese individuals in the SHCS.
All ARV drug models, except for doravirine (Supplementary Table 1), were previously developed and verified to predict the pharmacokinetics in healthy and elderly PWH [6, 12]. […] The TDM data were excluded if the participant’s age was younger than 20 or older than 50 years to avoid the age-related confounding effect on the pharmacokinetics, if a nonstandard ARV dosage was used, and if concurrent medications with inhibitory or inducing effects were used. […]

The conditions of series [3]: standard oral dose at steady state, GM (mean for etravirine, emtricitabine, tenofovir), literature studies only, ref Supplementary Table 2 [9-16, 21-24]; cited from earlier work.

`C[C@@H]1CCO[C@H]2Cn3cc(C(=O)NCc4ccc(F)cc4F)c(=O)c(O)c3C(=O)N12` [Dolutegravir, dolutegravir]: in series [1], the “Cτ, Ratio Obese/Nonobese, Observed” value is 1.06. Regarding `O=C1Nc2ccc(Cl)cc2[C@@](C#CC2CC2)(C(F)(F)F)O1` [Efavirenz, efavirenz], the “Cmax, Ratio Predicted/Observed, Obese” value in series [2] was 1.14. On to `Cc1cc(C#N)cc(C)c1Oc1nc(Nc2ccc(C#N)cc2)nc(N)c1Br` [Etravirine, etravirine], for which the “t1/2, observed, nonobese individuals” value in series [3] is 12.8 h.
